Laboratory results as given in patent US7977370B2, “(Hetero)aryl cyclohexane derivatives” (dated 2011).
Like-named read-outs stand apart in the source and are kept apart here.

Protein sequences, listed by entry. Tags and fused reporters are not part of them. Lines headed by an entry give the natural chain unless they say otherwise; changes in a name come on top.
UniProt P35372, whole entry, looked up: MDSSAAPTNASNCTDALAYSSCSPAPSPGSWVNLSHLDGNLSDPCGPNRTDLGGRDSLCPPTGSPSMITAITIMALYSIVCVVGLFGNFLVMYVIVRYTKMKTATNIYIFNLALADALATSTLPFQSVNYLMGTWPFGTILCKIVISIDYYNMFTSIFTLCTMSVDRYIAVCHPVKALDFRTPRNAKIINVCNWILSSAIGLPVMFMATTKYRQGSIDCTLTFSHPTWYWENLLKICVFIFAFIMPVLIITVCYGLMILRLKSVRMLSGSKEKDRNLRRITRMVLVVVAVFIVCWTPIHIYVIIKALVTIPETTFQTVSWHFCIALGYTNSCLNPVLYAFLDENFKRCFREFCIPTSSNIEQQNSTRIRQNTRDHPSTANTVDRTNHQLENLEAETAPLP
UniProt P41146: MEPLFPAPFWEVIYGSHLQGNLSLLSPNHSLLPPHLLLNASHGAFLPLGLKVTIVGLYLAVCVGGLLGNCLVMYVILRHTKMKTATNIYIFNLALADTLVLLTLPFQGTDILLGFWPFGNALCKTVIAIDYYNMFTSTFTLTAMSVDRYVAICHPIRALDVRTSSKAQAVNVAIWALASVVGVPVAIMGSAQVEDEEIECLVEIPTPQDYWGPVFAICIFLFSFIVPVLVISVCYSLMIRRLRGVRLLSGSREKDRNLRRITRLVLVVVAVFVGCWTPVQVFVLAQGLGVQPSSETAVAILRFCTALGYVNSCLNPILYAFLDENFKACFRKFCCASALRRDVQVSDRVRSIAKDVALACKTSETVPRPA
UniProt P41145: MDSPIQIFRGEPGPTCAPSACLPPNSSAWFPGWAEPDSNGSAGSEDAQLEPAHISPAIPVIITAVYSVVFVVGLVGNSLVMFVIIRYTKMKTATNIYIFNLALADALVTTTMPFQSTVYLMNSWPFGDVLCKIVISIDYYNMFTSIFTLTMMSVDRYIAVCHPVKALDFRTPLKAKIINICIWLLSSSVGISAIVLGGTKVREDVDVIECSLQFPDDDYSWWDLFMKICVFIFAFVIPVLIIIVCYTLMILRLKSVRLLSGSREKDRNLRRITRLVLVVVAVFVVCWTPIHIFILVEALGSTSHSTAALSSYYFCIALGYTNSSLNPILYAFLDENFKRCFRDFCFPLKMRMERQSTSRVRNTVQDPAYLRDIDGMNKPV

Assays:
human μ-opiate receptor = human μ-opiate receptor (Homo sapiens, UniProt P35372); assay: μ-opiate receptor binding assay with [3H]-naloxone, CHO-K1 membrane preparation; conditions: for Ki (μ)/Ki (ORL1): ratio, comparison table Q=(hetero)aryl vs Q=H; for % Inhibition (μ) [1 μM]: test concentration 1 μM; for Ki: read-out: Ki (μ) Mean
ORL 1-receptor = ORL 1-receptor (Homo sapiens, UniProt P41146); assay: ORL 1 receptor binding assay with 3H-nociceptin/orphanin FQ, membranes of recombinant CHO-ORL 1 cells; conditions: for % Inhibition (ORL1) [1 μM]: test concentration 1 μM; for Ki: read-out: Ki (ORL1) Mean
kappa-opioid receptor = kappa-opioid receptor (Homo sapiens, UniProt P41145); assay: kappa-opioid receptor binding assay with [3H]-Cl-977, CHO-K1 membrane preparation; conditions: for Ki: read-out: Ki (kappa) Mean, comparison table

Compound: Cc1c(C2(c3oc4ccccc4c3C)CCC(c3ccccc3)(N(C)C)CC2)oc2ccccc12.O=C(O)CC(O)(CC(=O)O)C(=O)O
- Ki (μ)/Ki (ORL1) (human μ-opiate receptor): 2.8
- % Inhibition (μ) [1 μM] (human μ-opiate receptor): 3%
- % Inhibition (ORL1) [1 μM] (ORL 1-receptor): 8%

Compound: 4-(3-(2-aminoethyl)-1H-indol-2-yl)-1-butyl-4-(5-fluoro-3-methyl-1H-indol-2-yl)-N,N-cyclohexylamine
- % Inhibition (μ) [1 μM] (human μ-opiate receptor): 98%
- % Inhibition (ORL1) [1 μM] (ORL 1-receptor): 95%

Compound: CCCCC1(N(C)C)CCC(c2[nH]c3ccc(C(F)(F)F)cc3c2C)(c2[nH]c3ccc(C(F)(F)F)cc3c2C)CC1.O=C(O)CC(O)(CC(=O)O)C(=O)O
- % Inhibition (μ) [1 μM] (human μ-opiate receptor): 60%
- % Inhibition (ORL1) [1 μM] (ORL 1-receptor): 9%

Compound: CCCCC1(N(C)C)CCC(c2[nH]c3ccccc3c2C)(c2[nH]c3ccccc3c2C)CC1
- Ki (human μ-opiate receptor; Table 1): 22 nM
- Ki (ORL 1-receptor; Table 1): 23 nM
- % Inhibition (ORL1) [1 μM] (ORL 1-receptor): 88%

Compound: CCCCC1(N(C)C)CCC(c2[nH]c3ccccc3c2C)(c2[nH]c3ccccc3c2CCNC(=O)Nc2ccccc2)CC1 (stereo not drawn)
- Ki (human μ-opiate receptor; Table 1): 4.3 nM
- % Inhibition (μ) [1 μM] (human μ-opiate receptor): 100%
- Ki (ORL 1-receptor; Table 1): 13 nM
- % Inhibition (ORL1) [1 μM] (ORL 1-receptor): 98%

Compound: CCCCC1(N(C)C)CCC(c2[nH]c3ccc(C(F)(F)F)cc3c2C)(c2[nH]c3ccc(C(F)(F)F)cc3c2C)CC1
- Ki (human μ-opiate receptor; Table 1): 557 nM
- Ki (ORL 1-receptor; Table 1): 1330 nM

Compound: N,N-dimethyl-4-(3-methyl-1H-indol-2-yl)-1-phenyl-4-(3-(2-pyridin-4-yl)ethyl)-1H-indol-2-yl)cyclohexylamine
- % Inhibition (μ) [1 μM] (human μ-opiate receptor): 73%
- % Inhibition (ORL1) [1 μM] (ORL 1-receptor): 61%

Compound: Cc1c(C2(c3ccc4c(c3)OCO4)CCC(c3ccccc3)(N(C)C)CC2)[nH]c2ccccc12 (stereo not drawn)
- Ki (human μ-opiate receptor; Table 1): 470 nM
- Ki (ORL 1-receptor; Table 1): 265 nM
- % Inhibition (ORL1) [1 μM] (ORL 1-receptor): 56%

Compound: CCCCC1(N(C)C)CCC(c2[nH]c3ccccc3c2CCN2CCc3ccccc3C2)(c2[nH]c3ccccc3c2CCN2CCc3ccccc3C2)CC1.Cl
- % Inhibition (μ) [1 μM] (human μ-opiate receptor): 99%
- % Inhibition (ORL1) [1 μM] (ORL 1-receptor): 99%

Compound: COc1cccc(C2(c3[nH]c4ccccc4c3C)CCC(c3ccccc3)(N(C)C)CC2)c1 (stereo not drawn)
- % Inhibition (ORL1) [1 μM] (ORL 1-receptor): 82%

Compound: COc1ccc(C2(c3[nH]c4ccccc4c3C)CCC(c3ccccc3)(N(C)C)CC2)cc1 (stereo not drawn)
- Ki (human μ-opiate receptor; Table 1): 78 nM
- % Inhibition (μ) [1 μM] (human μ-opiate receptor): 74%
- Ki (ORL 1-receptor; Table 1): 39 nM
- % Inhibition (ORL1) [1 μM] (ORL 1-receptor): 80%

Compound: CCCCC1(N(C)C)CCC(c2[nH]c3ccc(F)cc3c2C)(c2[nH]c3ccccc3c2CCNC(=O)Nc2ccccc2)CC1 (stereo not drawn)
- Ki (human μ-opiate receptor; Table 1): 29 nM
- % Inhibition (μ) [1 μM] (human μ-opiate receptor): 95%
- Ki (ORL 1-receptor; Table 1): 31 nM
- % Inhibition (ORL1) [1 μM] (ORL 1-receptor): 86%

Compound: CCCCC1(N(C)C)CCC(c2c(C)c3ccccc3n2C)(c2c(C)c3ccccc3n2C)CC1.Cl
- % Inhibition (ORL1) [1 μM] (ORL 1-receptor): 31%

Compound: Cc1c(C2(c3ccccc3)CCC(c3ccccc3)(N(C)C)CC2)[nH]c2ccccc12 (stereo not drawn)
- Ki (human μ-opiate receptor; Table 1): 150 nM
- Ki (human μ-opiate receptor; comparison table): 150 nM
- Ki (ORL 1-receptor; Table 1): 20 nM
- Ki (ORL 1-receptor; comparison table): 20 nM
- Ki (kappa-opioid receptor): 580 nM

Compound: CCCCC1(N(C)C)CCC(c2[nH]c3ccccc3c2C)(c2[nH]c3ccccc3c2CCNS(=O)(=O)C2CCCC2)CC1 (stereo not drawn)
- % Inhibition (ORL1) [1 μM] (ORL 1-receptor): 97%

Compound: Cc1c(C2(c3[nH]c4ccccc4c3C)CCC(c3ccccc3)(N(C)C)CC2)[nH]c2ccccc12
- Ki (human μ-opiate receptor; Table 1): 60 nM
- Ki (ORL 1-receptor; Table 1): 43 nM

Compound: CNC1(c2ccccc2)CCC(c2[nH]c3ccccc3c2CCc2ccncc2)(c2[nH]c3ccccc3c2CCc2ccncc2)CC1
- % Inhibition (μ) [1 μM] (human μ-opiate receptor): 80%
- % Inhibition (ORL1) [1 μM] (ORL 1-receptor): 70%

Compound: CCCCC1(N(C)C)CCC(c2[nH]c3ccccc3c2CCc2ccncc2)(c2[nH]c3ccccc3c2CCc2ccncc2)CC1.O=C(O)CC(O)(CC(=O)O)C(=O)O
- % Inhibition (μ) [1 μM] (human μ-opiate receptor): 100%
- % Inhibition (ORL1) [1 μM] (ORL 1-receptor): 95%

Compound: Cc1c(C2(c3ccccc3)CCC(c3ccccc3)(N(C)C)CC2)[nH]c2ccccc12.O=C(O)CC(O)(CC(=O)O)C(=O)O (stereo not drawn)
- Ki (μ)/Ki (ORL1) (human μ-opiate receptor): 7.5
- % Inhibition (μ) [1 μM] (human μ-opiate receptor): 76%
- % Inhibition (ORL1) [1 μM] (ORL 1-receptor): 82%
- Ki (kappa)/Ki (ORL1) (kappa-opioid receptor; ratio, comparison table Q=(hetero)aryl vs Q=H): 29

Compound: CN(C)C1(c2ccccc2)CCC(c2[nH]c3ccccc3c2CCc2ccncc2)(c2[nH]c3ccccc3c2CCc2ccncc2)CC1
- Ki (human μ-opiate receptor; Table 1): 28 nM
- Ki (ORL 1-receptor; Table 1): 88 nM
- % Inhibition (ORL1) [1 μM] (ORL 1-receptor): 71%

Compound: CCCCC1(N2CCCC2)CCC(c2[nH]c3ccccc3c2CCc2ccncc2)(c2[nH]c3ccccc3c2CCc2ccncc2)CC1
- Ki (human μ-opiate receptor; Table 1): 93 nM
- % Inhibition (μ) [1 μM] (human μ-opiate receptor): 77%
- Ki (ORL 1-receptor; Table 1): 1080 nM
- % Inhibition (ORL1) [1 μM] (ORL 1-receptor): 18%

Compound: Cc1c(C2(c3[nH]c4ccccc4c3CCc3ccncc3)CCC(c3ccccc3)(N(C)C)CC2)[nH]c2ccccc12 (stereo not drawn)
- Ki (human μ-opiate receptor; Table 1): 61 nM
- % Inhibition (μ) [1 μM] (human μ-opiate receptor): 97%
- Ki (ORL 1-receptor; Table 1): 18 nM
- % Inhibition (ORL1) [1 μM] (ORL 1-receptor): 94%

Compound: CCCCC1(N(C)C)CCC(c2[nH]c3ccccc3c2CCNC(=O)Nc2ccccc2)(c2[nH]c3ccccc3c2CCNC(=O)Nc2ccccc2)CC1
- Ki (human μ-opiate receptor; Table 1): 11 nM
- % Inhibition (μ) [1 μM] (human μ-opiate receptor): 100%
- Ki (ORL 1-receptor; Table 1): 12 nM
- % Inhibition (ORL1) [1 μM] (ORL 1-receptor): 97%

Compound: CN(C)C1(c2ccccc2)CCC(c2cccs2)(c2[nH]c3ccccc3c2CCc2ccncc2)CC1 (stereo not drawn)
- Ki (human μ-opiate receptor; Table 1): 717 nM
- % Inhibition (μ) [1 μM] (human μ-opiate receptor): 69%
- Ki (ORL 1-receptor; Table 1): 21 nM
- % Inhibition (ORL1) [1 μM] (ORL 1-receptor): 82%

Compound: 1-benzyl-N,N-dimethyl-4,4-bis(3-(2-(pyridin-4-yl)ethyl)-1H-indol-2-yl)cyclohexanamine; 2-hydroxypropane-1,2,3-tricarboxylate (2:3)
- Ki (human μ-opiate receptor; Table 1): 10 nM
- % Inhibition (μ) [1 μM] (human μ-opiate receptor): 96%
- Ki (ORL 1-receptor; Table 1): 730 nM
- % Inhibition (ORL1) [1 μM] (ORL 1-receptor): 19%

Compound: Cc1c(C2(c3oc4ccccc4c3C)CCC(c3ccccc3)(N(C)C)CC2)oc2ccccc12
- Ki (human μ-opiate receptor; Table 1): 780 nM
- Ki (human μ-opiate receptor; comparison table): 780 nM
- Ki (ORL 1-receptor; Table 1): 283 nM
- Ki (ORL 1-receptor; comparison table): 283 nM

Compound: (phenyl-2-(2-(4-butyl-4-(dimethylamino)-1-(5-fluoro-3-methyl-1H-indol-2-yl)cyclohexyl)-1H-indol-3-yl)ethyl carbamate
- % Inhibition (μ) [1 μM] (human μ-opiate receptor): 90%
- % Inhibition (ORL1) [1 μM] (ORL 1-receptor): 83%

Compound: CCCCC1(N(C)C)CCC(c2[nH]c3ccccc3c2C)(c2[nH]c3ccccc3c2CCN)CC1 (stereo not drawn)
- Ki (human μ-opiate receptor; Table 1): 1 nM
- Ki (ORL 1-receptor; Table 1): 1 nM
- % Inhibition (ORL1) [1 μM] (ORL 1-receptor): 98%

Compound: CCCCC1(N(C)C)CCC(c2[nH]c3ccccc3c2C)(c2c(C)c3ccccc3n2C)CC1 (stereo not drawn)
- Ki (human μ-opiate receptor; Table 1): 165 nM
- Ki (ORL 1-receptor; Table 1): 610 nM

Compound: CCCCC1(N(C)C)CCC(c2c(C)c3ccccc3n2C)(c2c(C)c3ccccc3n2C)CC1
- Ki (human μ-opiate receptor; Table 1): 81 nM
- Ki (ORL 1-receptor; Table 1): 450 nM

Compound: Cc1c(C2(c3[nH]c4ccccc4c3C)CCC(c3ccccc3)(N(C)C)CC2)[nH]c2ccccc12.O=C(O)CC(O)(CC(=O)O)C(=O)O
- % Inhibition (μ) [1 μM] (human μ-opiate receptor): 83.5%
- % Inhibition (ORL1) [1 μM] (ORL 1-receptor): 77%

Compound: Cc1c(C2(c3cccs3)CCC(Cc3ccccc3)(N(C)C)CC2)[nH]c2ccccc12 (stereo not drawn)
- % Inhibition (ORL1) [1 μM] (ORL 1-receptor): 72%

Compound: CCCCC1(N(C)C)CCC(c2[nH]c3ccccc3c2C)(c2[nH]c3ccccc3c2CCN2C(=O)c3ccccc3C2=O)CC1 (stereo not drawn)
- Ki (human μ-opiate receptor; Table 1): 12 nM
- Ki (ORL 1-receptor; Table 1): 29 nM
- % Inhibition (ORL1) [1 μM] (ORL 1-receptor): 87%

Compound: CCCCC1(N(C)C)CCC(c2[nH]c3ccccc3c2CCC(=O)OC)(c2[nH]c3ccccc3c2CCC(=O)OC)CC1
- Ki (human μ-opiate receptor; Table 1): 3 nM
- Ki (ORL 1-receptor; Table 1): 11 nM
- % Inhibition (ORL1) [1 μM] (ORL 1-receptor): 93%

Compound: CCCCC1(N(C)C)CCC(c2[nH]c3ccccc3c2CCc2ccncc2)(c2[nH]c3ccccc3c2CCc2ccncc2)CC1
- Ki (human μ-opiate receptor; Table 1): 5 nM
- Ki (ORL 1-receptor; Table 1): 13 nM

Compound: CN(C)C1(c2cccs2)CCC(c2[nH]c3ccccc3c2CCc2ccncc2)(c2[nH]c3ccccc3c2CCc2ccncc2)CC1
- Ki (human μ-opiate receptor; Table 1): 143 nM
- Ki (human μ-opiate receptor; comparison table): 143 nM
- % Inhibition (μ) [1 μM] (human μ-opiate receptor): 73%
- Ki (ORL 1-receptor; Table 1): 29 nM
- Ki (ORL 1-receptor; comparison table): 29 nM
- % Inhibition (ORL1) [1 μM] (ORL 1-receptor): 93%
- Ki (kappa-opioid receptor): 160 nM

Compound: Cc1c(C2(c3cccs3)CCC(c3cccc(F)c3)(N(C)C)CC2)[nH]c2ccccc12 (stereo not drawn)
- % Inhibition (ORL1) [1 μM] (ORL 1-receptor): 86%

Compound: CCCCC1(N(C)C)CCC(c2[nH]c3ccccc3c2C)(c2c(C)c3ccccc3n2C)CC1.Cl (stereo not drawn)
- % Inhibition (ORL1) [1 μM] (ORL 1-receptor): 30%
